A short description of the data set: Population pharmacokinetic. To be noted: final model; 1000 bootstrap iterations, success rate 92.1%.

Take `CN[C@H](CC(C)C)C(=O)N[C@H]1C(=O)N[C@@H](CC(N)=O)C(=O)N[C@H]2C(=O)N[C@H]3C(=O)N[C@H](C(=O)N[C@H](C(=O)O)c4cc(O)cc(O)c4-c4cc3ccc4O)[C@H](O)c3ccc(c(Cl)c3)Oc3cc2cc(c3O[C@@H]2O[C@H](CO)[C@@H](O)[C@H](O)[C@H]2O[C@H]2C[C@](C)(N)[C@H](O)[C@H](C)O2)Oc2ccc(cc2Cl)[C@H]1O` [vancomycin]: the “θ2Vd, bootstrap median” value was determined as 154 L.

These data come from article PMC6520475 (European Journal of Drug Metabolism and Pharmacokinetics, 2018).
